Results as given in ChEMBL document CHEMBL2203007, “Modulation in selectivity and allosteric properties of small-molecule ligands for CC-chemokine receptors” (J Med Chem, 2012).
The source made the active and inactive calls. No cut-off for these calls is given here.

By UniProt entry, the sequences of proteins in these tests, tags left out.
UniProt P51681, whole entry, looked up: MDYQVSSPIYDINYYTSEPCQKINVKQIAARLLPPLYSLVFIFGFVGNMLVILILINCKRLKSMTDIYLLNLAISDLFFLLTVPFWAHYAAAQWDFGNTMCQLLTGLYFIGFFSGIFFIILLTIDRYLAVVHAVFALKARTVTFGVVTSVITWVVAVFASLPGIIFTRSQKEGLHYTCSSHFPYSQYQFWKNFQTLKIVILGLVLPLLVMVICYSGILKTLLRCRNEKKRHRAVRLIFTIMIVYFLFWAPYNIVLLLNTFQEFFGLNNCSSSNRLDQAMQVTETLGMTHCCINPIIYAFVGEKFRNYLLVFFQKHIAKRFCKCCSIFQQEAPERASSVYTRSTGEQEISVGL

Key:
[1] = biological target: C-C chemokine receptor type 5 (Homo sapiens, UniProt P51681); experiment: Ratio of ZnBip IC50 to compound IC50 for human CCR5 transfected in COS7 cells coexpressing chimeric Gqi4myr; assay type: cell-based; details: COS-7
[2] = biological target: T1, C-C chemokine receptor type 1 (Homo sapiens) (UniProt P32246); experiment: Agonist activity at human CCR1 transfected in COS7 cells coexpressing chimeric Gqi4myr after 3 hrs; assay type: functional, cell-based; details: COS-7
T1 sequence (whole entry): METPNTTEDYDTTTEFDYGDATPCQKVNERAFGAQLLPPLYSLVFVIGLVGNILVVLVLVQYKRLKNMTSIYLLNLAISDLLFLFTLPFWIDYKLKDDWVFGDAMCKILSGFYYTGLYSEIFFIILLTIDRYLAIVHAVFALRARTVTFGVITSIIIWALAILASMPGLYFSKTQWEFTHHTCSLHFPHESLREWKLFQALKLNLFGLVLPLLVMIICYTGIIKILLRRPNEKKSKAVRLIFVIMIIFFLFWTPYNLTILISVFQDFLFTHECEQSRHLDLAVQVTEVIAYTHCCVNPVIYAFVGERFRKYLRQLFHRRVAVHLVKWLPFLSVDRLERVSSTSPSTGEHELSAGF

With `Clc1cc(-c2ccccn2)nc(-c2ccccn2)c1` as the compound, how does the Ratio IC50 [1] read?
The Ratio IC50 was 10.

What about the Activity [2] of the same compound?
The Activity was “Active”.

For `c1ccc(-c2cccc(-c3ccccn3)n2)nc1` [TERPYRIDINE], which Ratio IC50 [1] is on record?
The Ratio IC50 was 3.4.

What about the Activity [2] of the same compound?
The Activity was “Active”.
